Measurements from patent US9815787B2, “Sulfonamide derivative or pharmaceutically acceptable acid addition salt thereof” (UNIVERSITY OF TSUKUBA, priority 2013, dated 2017).

The chains behind the UniProt entries cited, without tags or fusion partners.
UniProt O43614, whole entry: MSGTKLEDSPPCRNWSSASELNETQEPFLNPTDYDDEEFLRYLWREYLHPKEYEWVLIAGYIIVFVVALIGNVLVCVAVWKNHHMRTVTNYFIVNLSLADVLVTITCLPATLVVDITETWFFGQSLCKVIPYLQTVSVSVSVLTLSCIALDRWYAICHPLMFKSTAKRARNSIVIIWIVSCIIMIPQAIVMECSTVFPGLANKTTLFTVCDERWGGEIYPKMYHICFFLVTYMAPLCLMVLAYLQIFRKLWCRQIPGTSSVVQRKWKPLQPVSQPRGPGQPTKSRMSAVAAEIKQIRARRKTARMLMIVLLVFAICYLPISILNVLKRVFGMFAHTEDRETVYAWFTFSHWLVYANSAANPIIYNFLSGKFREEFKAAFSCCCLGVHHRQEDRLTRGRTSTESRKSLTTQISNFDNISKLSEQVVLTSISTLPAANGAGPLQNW

Target: OX2R (Homo sapiens, UniProt O43614)
Assay: Evaluation of agonist activity against OX2R (CHOOX2R cells, Fura2AM fluorescence, FDSS3000)
Format: cell-based
Conditions: for EC50: OX2R agonist activity; for EC50 / Response (0.1 μM (%)) / Response (1.0 μM (%)) / Response (10 μM (%)): CHOOX2R cells; for Emax (%): conversion with orexin-A as full agonist (maximum agonist activity 100%); for Response (0.1 μM (%)): test compound 0.1 μM; for Response (0.1 μM (%)) / Response (1.0 μM (%)) / Response (10 μM (%)): relative to orexin-A as full agonist (100%); for Response (1.0 μM (%)): test compound 1.0 μM; for Response (10 μM (%)): test compound 10 μM

SMILES | EC50 | Emax (%) | Response (0.1 μM (%)) | Response (1.0 μM (%)) | Response (10 μM (%))
COc1cccc(C(=O)NCCNc2cccc(NS(=O)(=O)c3cc(-c4cccc(C(=O)N(C)C)c4)ccc3OC)c2)n1 | 360 nM | 87% | 44% | 91% | 84%
COc1ccc(-c2cccc(C(=O)N(C)C)c2)cc1S(=O)(=O)Nc1cccc(NCCNC(=O)c2cccnc2OC)c1 | 100 nM | 94% | 18% | 89% | 91%
